Experimental data published in patent US20240115662A1, “METHODS OF TREATING HYPOGONADOTROPIC HYPOGONADISM AND COGNITION IMPAIRMENT FOLLOWING A TRAUMATIC BRAIN INJURY” (WISCONSIN ALUMNI RESEARCH FOUNDATION, priority 2021, published 2024).

How the values were obtained:
[1] = system: male Sprague Dawley rats with craniectomy or controlled cortical impact (CCI) injury; assay: Plasma steroid concentrations after craniectomy (Sham) or CCI injury, hCG with or without RU-486; assay type: in vivo, rat
Experimental: Male Sprague Dawley (SD) rats (n=58, 5-6-months old) were acquired from Harlan Laboratories Inc. (Madison, WI) and acclimated to the environment over 2 days. Rats were then weighed and handled for no less than 5 min each for 5 consecutive days and daily thereafter while being housed, fed and maintained on a 12-hour reverse light/dark cycle. The Institutional Animal Care and Use Committee (Animal Component of Research Protocol) at the William S. Middleton Veterans Administration Hospital approved the procedures used in this study and the research was conducted in an AAALAC-approved facility. Experimenters were blinded as to the identity of the animals throughout injections, blood collections, and body weight and hormone data analyses.
All surgical procedures were carried out under isoflurane gas anesthesia (5% for induction; 1.5-3.0% for maintenance, craniectomy ˜15-30 min duration; craniectomy+CCI injury ˜25-45 min duration). An anesthesia chamber was used for induction and a nose cone was used for maintenance.
Anesthetized rats were mounted in a Kopf stereotaxic device (Model 900; Tujunga, CA), where the animal's head was held in place by non-traumatic ear bars and a bite bar. Anesthesia was maintained by nose cone while the head was shaved and sterilized with 70% ethanol and Betadine™ (Purdue Products L.P., Stamford, CT) antiseptic solution. Throughout surgery anesthesia levels were monitored closely and were frequently adjusted as need, based on heart rate, respiration rate and oxygen saturation. A homeothermic blanket control unit (Harvard Apparatus, Holliston, MA) was used to monitor body temperature and to prevent hypothermia throughout surgery.
Under aseptic conditions, the cranium and its bony landmarks including bregma (β) and lambda (λ) were exposed by making a midline incision along the scalp into the skin and fascia covering the skull. A 6 mm diameter craniectomy was centered on the midline at 2.5 mm anterior to β. The cortical impact was made at 2.5 mm anterior to β over the midline of the medial frontal cortex with an Impact One™ Stereotaxic CCI instrument (Leica, Buffalo Grove, IL), using a 5 mm impactor (bit size), traveling at 2.25 m/s (velocity), extending 3 mm below the cortical surface (impact depth) for 100 ms (dwell time). Sham-injured groups received the same surgical procedures up to and including craniectomy but no CCI injury. After surgery, the rats were placed on a heating pad, monitored closely and upon awakening were tested 30 min later for righting reflex to assess any immediate effects of craniectomy or CCI injury on righting ability, and then returned to their home cages.
Experiment 1: Rats were assigned to the following groups: Sham+saline (n=5), Sham+hCG (n=5), CCI+saline (n=8), CCI+hCG (n=8). Baseline blood draws were collected from all animals. Beginning 1-hour after craniectomy or CCI, Pregnyl® (hCG, 400 IU/kg; Merck & Co., Inc., Whitehouse Station, NJ) or saline (0.9% NaCl in deionized H2O; equivalent volume to that injected for hCG) was injected intramuscularly every other day for 29 days. Pregnyl® is a highly purified pyrogen-free preparation obtained from the urine of pregnant females. Each vial contains 10,000 USP units of sterile dried powder with 5 mg monobasic sodium phosphate and 4.4 mg dibasic sodium phosphate that is diluted in solvent containing water, 0.56% sodium chloride and 0.9% benzyl alcohol (www.drugs.com/pro/pregnyl.html).
Experiment 2: Rats were assigned to the following groups: Sham+saline+RU-486 (n=5), Sham+hCG+RU-486 (n=5), CCI+saline+RU-486 (n=5), or CCI+hCG+RU-486 (n=5). RU-486 (Mifepristone, 100 mg/mL solution, CAS Number 84371-65-3; 40 mg/kg in 100% ethanol; Sigma-Aldrich Corp., St. Louis, MO,) was injected intraperitoneallyl 5-20 min before every hCG or saline control injection.
Rats were anesthetized (between 9:00 a.m.-12:00 noon) and their tails placed in a 200 mL beaker filled with warm water (≤44° C.) for 5 min. […]

[2] = in vivo; cited from earlier work
[3] = system: adult male rats with CCI injury; assay: Morris water maze spatial learning and memory after CCI; assay type: in vivo, rat
Excerpt: Therefore, hCG reduced the detrimental effects of CCI on latency to reach the platform. […] Re-Acquisition Phase:_Sham/NSCon groups quickly learned the new location of the hidden platform, and while this learning was severely compromised in the CCI vehicle group, hCG enabled better learning of the new location of the hidden platform in CCI animals (n=9-12/group; p<0.05; a, b=differences between groups during acquisition phase; c, d=differences between groups during re-acquisition phase; e=differences within groups between the acquisition (PID10) and re-acquisition phases (PID20)).
To test the effects of hCG on cognitive and motor recovery, 69 adult male rats (5-month of age) with CCI injury (group size, n=31), sham surgery (n=24) or non-surgical control (NSCon; n=14) were immediately administered saline (n=32) or hCG (200 mIU/kg/2 days n=37) over 28 d. On PID 2, 6, 9, 13 and 23, all rats were tested for vestibulomotor performance (Rotarod) and on PID 6-10 and 20-22 the same rats were tested for learning and memory (Morris water maze (MWM)), respectively. Probe Test 1 and 2 (i.e., swimming in tank for 60 s without MWM platform) were conducted on PID 12 and 24. At the end of behavioral testing, rat brains were collected, digitally imaged and analyzed for gross lesion size (% of whole brain surface area). Note that there was considerable overlap between NSCon and Sham groups (see small standard deviations for the data) and are therefore presented as one group.
To test spatial learning and memory, rats were trained in Morris water maze performance and the latency to reach a hidden platform was recorded over 5 days (Acquisition Phase), and later, spatial memory was tested by moving the platform to a novel location (Re-acquisition Phase). We found no difference between groups in latency to reach the platform on day 1 (PID6) of the acquisition Phase (p>0.05, FIG. 9). By day 5 (PID10) of the acquisition Phase, Sham/NSCon animals treated with vehicle or hCG were fastest to find the hidden MWM platform (8.6±1.2 s to 10.4±2.1 s). […] Ten days after the acquisition phase (PID20) the platform was moved from the NE to the SE quadrant (novel platform placement; NPP) and rats were tested for 3 days (re-acquisition phase).
At the end of each acquisition phase, the platform was removed and 48 h later the animals were tested in the MWM for quadrant preferences over 60 s to determine if they remembered the location of the hidden platform (Probe test 1; NE quadrant). […] Similar to Probe test 1, 48 h after completing the re-acquisition phase the platform was removed and the animals were tested for quadrant preferences (Probe test 2). […] The probe tests indicate that immediate and chronic hCG promotes medium-term memory more so than long-term memory.

In the case of “hCG: heterodimeric glycoprotein hormone (α SEQ ID NO:1, β SEQ ID NO:2); given to the rats as Pregnyl”, the “effect on circulating corticosterone” value ([1]; CCI animals, PID 1 and 11) is reported as “did increase circulating corticosterone”, the “plasma P4 concentration” value ([1]; CCI injured animals without RU-486, PID 1) is reported as 24.2 ± 5.8 ng/mL and the “plasma T concentration” value ([1]; CCI injured animals without RU-486, PID 11) is reported as 12.9 ± 4.3 ng/mL. For the same substance, the “plasma T concentration” value ([1]; CCI injured animals without RU-486, PID 19) was 9.7 ± 1.4 ng/mL, the plasma androstenedione concentration ([1]; CCI+hCG group, PID 11, hCG 400 IU/kg every other day) was 4.5 ± 2.1 ng/mL and the “effect on corticosterone concentrations” value ([1]; Sham animals, any time point) was “had no effect on increasing corticosterone concentrations”. For the same substance, the “effect on circulating concentrations of T and P4” value ([1]; Sham surgery or CCI group, by PSD/PID 1) was “significantly increased circulating concentrations of T and P4 back to baseline concentrations”, the “duration of elevation in T” value ([1]; Sham surgery or CCI group, hCG every other day) was “elevations in T were maintained through PSD/PID 29” and the “circulating 11-DOC” value ([1]; Sham+hCG, PID 1, no RU-486) was 123.1 ± 24.6 ng/mL. For the same substance, the “plasma P4 concentration” value ([1]; Sham+hCG, PID 29, no RU-486) was 31.8 ± 14.2 ng/mL, the half-life [2] was “about 36 hours” and the “time spent in NE quadrant, Probe test 1” value ([3]; CCI animals, 60 s test, chance 15 s) was 24.5 ± 1.2 s. For the same substance, the “MWM latency to find hidden platform” value ([3]; CCI animals, day 5 (PID10) of acquisition phase) was 17.3 ± 3.6 s, the “MWM latency to find hidden platform” value ([3]; CCI animals, re-acquisition phase, PID22) was 20.0 ± 2.8 s and the “accumulated time spent in both platform associated quadrants, Probe test 2” value ([3]; CCI animals, chance ~30 s) was 36.6 ± 2.5 s. For the same substance, the “time spent in SE quadrant, Probe test 2” value ([3]; CCI animals, platform placement 2 days prior) was “significantly increased time spent in the newer SE quadrant”, the “time spent in NE quadrant, Probe test 2” value ([3]; CCI animals, platform placement 12 days prior) was “not in the older NE quadrant” and the “time spent in SE quadrant, Probe test 2” value ([3]; Sham/NSCon animals) was “small, but significant decrease in time spent in the SE quadrant”. The “MWM latency to find hidden platform” value ([3]; Sham/NSCon animals, end of acquisition phase) was 10.4 ± 2.1 s and the “MWM latency to find hidden platform” value ([3]; Sham/NSCon animals, re-acquisition phase after NPP) was 10.9 ± 1.3 s.
